From patent publication US9827177B2, “Antiperspirant products with protein and antiperspirant salts” (Colgate-Palmolive Company, priority 2012, dated 2017)
Read-outs that look alike come from different tables or passages of the source.

Assays:
[1] = Precipitation of ZLC-BSA mixture solutions at adjusted pH; type: physicochemical; details: pure solution, pH 3-11
Experimental: In the following study, four ZLC-BSA mixture solutions are prepared with 2.53% Zn and varied BSA concentrations (0.05%, 0.1%, 0.5% and 1% by weight) in deionized water.
The pH of the solutions is adjusted to 3, 4, 5, 6, 7, 8, 9, 10 and 11 to observe the formation of precipitation. Precipitate is formed in all solutions at pH ranging from 3 to 5. […] All solutions appear clear at pH 8. A small amount of precipitation is also found at pH 9 and 10. At pH 11, precipitate is formed in all solutions. As the concentration of BSA increases, there is an increased amount of precipitation formed at low pH range from 3 to 5. In addition, the pH of pure ZLC solution and the pH of pure 0.5% BSA solution are adjusted to the same range to observe the formation of precipitation. […] The formation of precipitation in acid pH requires both ZLC and BSA to be present in solution.

[2] = sample 2: 1% BSA w/w in H2O, pH 7.2
[3] = sample 3: 1% BSA w/w in H2O, pH adjusted to 5.1

## Bovine serum albumin [BSA]
[1]
  formation of precipitation: No precipitation
Sample 2: 1% BSA w/w in H2O
  pH: 7.2
[2]
  Observation: Transparent
  Turbidity (NTU): 3.6 NTU
[3]
  Observation: Transparent
  Turbidity (NTU): 10.6 NTU
